For orientation: Kb means the equilibrium dissociation constant of an antagonist, usually derived from a functional assay. The low end stands for higher antagonist affinity, the high end for lower antagonist affinity.

Protein sequences, listed by entry. Tags and fused reporters are not part of them.
UniProt P47747, whole entry: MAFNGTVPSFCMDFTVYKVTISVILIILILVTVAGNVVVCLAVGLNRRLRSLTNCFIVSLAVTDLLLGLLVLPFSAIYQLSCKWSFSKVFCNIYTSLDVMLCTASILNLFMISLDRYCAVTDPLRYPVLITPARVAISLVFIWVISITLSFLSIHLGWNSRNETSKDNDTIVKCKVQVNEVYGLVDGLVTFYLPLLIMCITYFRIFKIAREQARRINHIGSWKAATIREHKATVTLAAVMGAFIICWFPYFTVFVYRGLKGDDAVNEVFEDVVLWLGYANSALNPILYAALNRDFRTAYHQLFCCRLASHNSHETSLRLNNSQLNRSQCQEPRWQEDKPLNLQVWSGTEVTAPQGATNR

In the test the target is T1, histamine-H2 receptors (isolated atrium) (Cavia porcellus, UniProt P47747).
T1 construct: in vitro on the isolated atrium of guinea pigs; from tissue; host or cells: isolated guinea pig atrium
The test is described as follows: H2-antagonistic activity, pA2-values in vitro on the isolated atrium of guinea pigs. It is filed as cell-based. To be noted: isolated guinea pig atrium, H2 antagonism. From the text: An accepted method for determining H2-antagonistic activity is to determine the pA2-values in vitro on the isolated atrium of guinea pigs (cf. Ariens, Molecular Pharmacology, Vol. 1, Academic Press, New York, 1964).

Compound `CN/C(=N/CCSCc1nc[nH]c1C)NC#N` [Cimetidine, reference compound] showed a Kb of 501 nM.

For the origin of these results see US4596811A, “Heterocyclic compounds, a process for their production and medicaments containing these compounds” (Ludwig Heumann & Co., GmbH, priority 1982, dated 1986).
